Source: publication PMC8279409, “Novel Mixed NOP/Opioid Receptor Peptide Agonists” (Journal of Medicinal Chemistry, 2021)
pEC50: −log10 of the molar value. Where “and” joins values, the source holds several entries; their conditions need not be identical. Identical values can stand only once.

By UniProt entry, the sequences of proteins in these tests, tags left out.
UniProt P35372, whole entry: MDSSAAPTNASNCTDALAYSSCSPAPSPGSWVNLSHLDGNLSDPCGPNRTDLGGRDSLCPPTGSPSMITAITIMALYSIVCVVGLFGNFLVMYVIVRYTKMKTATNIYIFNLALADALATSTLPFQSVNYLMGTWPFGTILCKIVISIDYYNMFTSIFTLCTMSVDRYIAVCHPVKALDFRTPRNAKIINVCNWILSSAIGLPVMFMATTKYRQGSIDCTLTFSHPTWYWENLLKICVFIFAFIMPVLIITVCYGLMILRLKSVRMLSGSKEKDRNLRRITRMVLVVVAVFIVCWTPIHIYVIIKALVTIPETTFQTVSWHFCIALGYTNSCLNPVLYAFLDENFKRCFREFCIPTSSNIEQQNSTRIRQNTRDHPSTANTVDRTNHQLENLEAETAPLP

Experiments:
[1] = biological target: T1, human mu receptor (Homo sapiens, UniProt P35372); assay: Calcium mobilization, mu opioid receptor; format: cell-based
T1 construct: expressed in transfected cells; host or cells: CHO cells stably coexpressing the receptor and chimeric Gαqi5
Description: CHO cells stably coexpressing the human NOP or kappa or the mu receptor and the C-terminally modified Gαqi5 and CHO cells coexpressing the delta receptor and the GαqG66Di5 protein were generated and cultured as described previously.[45],[46] Cells were maintained in Dulbecco’s modified Eagle’s medium/nutrient mixture F-12 (DEMEM/F-12) supplemented with 10% FBS, 100 U/mL penicillin and 100 μg/mL streptomycin, 100 μg/mL hygromicin B, and 200 μg/mL G418 and cultured at 37 °C in 5% CO2 humidified air. Cells were seeded at a density of 50,000 cells/well into 96-well black, clear-bottom plates. The following day, the cells were incubated with Hanks’ balanced salt solution (HBSS) supplemented with 2.5 mM probenecid, 3 μM of the calcium-sensitive fluorescent dye Fluo-4 AM, and 0.01% pluronic acid for 30 min at 37 °C. […] After placing both plates (cell culture and master plate) into the fluorometric imaging plate reader FlexStation II (Molecular Devices, Sunnyvale, CA), fluorescence changes were measured. […] Maximum change in fluorescence, expressed as percent over the baseline fluorescence, was used to determine agonist response.
(§1) The pharmacological terminology adopted in this paper is consistent with IUPHAR recommendations.[59] All data are expressed as the mean ± standard error of the mean (SEM) of at least three experiments performed in duplicate. […]

[2] = biological target: T1, human mu receptor; assay: Dynamic mass redistribution (DMR), mu receptor; format: cell-based; conditions: CHO cells expressing human mu receptor, 60 min, 37 °C, mean of at least three experiments in duplicate, CL95% in brackets, read-out: mu pEC50 (CL95%) (converted)
Description: CHO cells stably expressing the human NOP and mu receptors were kindly provided by D.G. Lambert (University of Leicester, UK). Cells were cultured in DMEM/F-12 medium supplemented with 10% FBS, 100 U/mL penicillin, 100 μg/mL streptomycin, and 2 mmol/L L-glutamine. The medium was supplemented with 400 μg/mL G418 to maintain expression. Cells were cultured at 37 °C in 5% CO2 humidified air. For DMR measurements, the label-free EnSight Multimode Plate Reader (Perkin Elmer, MA, US) was used. Cells were seeded 15,000 cells/well in a volume of 30 μL onto fibronectin-coated 384-well DMR microplates and cultured for 20 h to obtain confluent monolayers. Cells were starved in the assay buffer (HBSS with 20 mM HEPES, 0.01% BSA fraction V) for 90 min before the test. Serial dilutions were made in the assay buffer. After reading the baseline, compounds were added in a volume of 10 μL; then, DMR changes were recorded for 60 min. Responses were described as picometer (pm) shifts over time (sec) following subtraction of values from vehicle-treated wells. Maximum picometer (pm) modification (peak) was used to generate concentration response curves. […]
as §1

C[C@@H](NC(=O)[C@@H](N)Cc1ccc(O)cc1)C(=O)N[C@@H](Cc1ccccc1)C(=O)NCC(=O)N[C@@H](Cc1ccc(O)cc1)C(=O)N1CCC[C@H]1C(=O)N[C@@H](CO)C(N)=O [Compound 2, dermorphin, reference compound]
pEC50 [1]: 7.71 and 7.83 and 8.15 | EC50 [2]: 1.2 nM
